Assay results as given in patent US9012152B2, “Anti-bacterial peptides and methods of treating diseases using same” (Yissum Research Development Company of the Hebrew …, priority 2007, dated 2015).

Tested on: E. Coli MC41relA^+
Test: EDF activity of modified derivatives (size and external Asn residues)
Type: cell-based
Conditions: various concentrations added to diluted cultures; incubated with rifampicin
Excerpt: FIGS. 14A-B are graphs illustrating that NNWNN (SEQ ID NO: 1) is the optimal molecule for EDF activity. FIG. 14A illustrates that each of the five amino acids is important for EDF activity. The five peptides analyzed include NNWNN (SEQ ID NO: 1); GNWNN (SEQ ID NO: 2); NGWNN (SEQ ID NO: 3); NNGNN (SEQ ID NO: 4); NNWGN (SEQ ID NO: 5); and NNWNG (SEQ ID NO: 6). The importance of size and external Asn residues for EDF activity is illustrated in FIG. 14B. Chemically synthesized EDF (SEQ ID NO: 1) or its modified derivatives were added at various concentrations to diluted cultures of E. Coli MC41relA^+. No EDF was added to a control culture. The modified derivatives that were added include NWN (SEQ ID NO: 7); NNNWNNN (SEQ ID NO: 8); QNWNN (SEQ ID NO: 9); NNWNQ (SEQ ID NO: 10); and GNWNG (SEQ ID NO: 11). Samples were incubated with rifampicin as described in Example 1.
E. coli mazEF-mediated cell death in the presence of synthesized wild type (WT) and mutated EDF. E. coli MC4100relA^+t(WT) and MC4100relA^+ΔmazEF (ΔmazEF) were grown for 12 hours in M9 medium with shaking (160 rpm). Then, cells were diluted 1:100 in M9 medium and were grown with shaking (160 rpm) at 37° C. to a mid-logarithmic phase (OD600=0.6). […] Cell killing was calculated by comparing the number of the colony-forming ability of cells treated by stressful conditions to those of the cells that were not exposed to the treatment.

NWN: tripeptide derivative of EDF (Chemically synthesized modified EDF derivative)
EDF activity: does not have EDF activity
